# Reference: US9802888B2, “STAT3 inhibitors” (UNIVERSITY OF HAWAII, priority 2013, dated 2017)
# System: human breast tumor (MDA-MB-231) xenografts
# Conditions: oral gavage, 3 mg/kg every day
smiles,measurement,value
CN(CC(=O)N(Cc1ccc(C2CCCCC2)cc1)c1ccc(C(=O)NO)cc1)S(=O)(=O)c1c(F)c(F)c(F)c(F)c1F [SH5-07],growth of human breast tumor (MDA-MB-231) xenografts,inhibited the growth
